Experimental data published in ChEMBL document CHEMBL4033785, “Increased Potency and Selectivity for Group III Metabotropic Glutamate Receptor Agonists Binding at Dual sites” (J Med Chem, 2018).

Assays:
Homo sapiens [1] = species on record: Homo sapiens; experiment: (§1) Selectivity ratio of EC50 for mGlu8 (unknown origin) expressed in HEK293 cells coexpressing chimeric Gq/i protein assessed as increase in intracellular calcium accumulation to EC50 for mGlu4 (unknown origin) expressed in HEK293 cells coexpressing chimeric Gq/i protein assessed as increase in intracellular calcium accumulation; type: cell-based
Outline: (§2)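 Ratio of mGlu8 EC50 to mGlu4 EC50, both from the same functional assay. Both receptors were co-expressed in HEK293 cells with chimeric G-protein and EAAT3 and read by 3H-IP accumulation or by Fluo-4 Ca2+ release.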

Homo sapiens [2] = species on record: Homo sapiens; experiment: as §1, with “[3H]inositol phosphate” for “increase in intracellular calcium”; type: cell-based; outline: as §2

SMILES | Ratio EC50 (Homo sapiens [1]) | Ratio EC50 (Homo sapiens [2])
COc1cc([C@@H](O)P(=O)(O)CC[C@H](N)C(=O)O)cc([N+](=O)[O-])c1O | 25 | –
COc1cc([C@H](O)P(=O)(O)CC[C@H](N)C(=O)O)cc([N+](=O)[O-])c1O | 6 | –
COc1cc(C(O)P(=O)(O)CC[C@H](N)C(=O)O)cc([N+](=O)[O-])c1O (mixture of isomers) | 21.5 | 30
